Measured values as given in patent publication US7217808B2, “RFRP-3 and DNA thereof” (Takeda Pharmaceutical Company, Ltd., priority 2001, dated 2007).

Sequences of proteins named here, by UniProt entry; tags and fusion partners are left off. A change or cut given only in a name is not applied to a line headed by its entry.
UniProt Q9GZQ6: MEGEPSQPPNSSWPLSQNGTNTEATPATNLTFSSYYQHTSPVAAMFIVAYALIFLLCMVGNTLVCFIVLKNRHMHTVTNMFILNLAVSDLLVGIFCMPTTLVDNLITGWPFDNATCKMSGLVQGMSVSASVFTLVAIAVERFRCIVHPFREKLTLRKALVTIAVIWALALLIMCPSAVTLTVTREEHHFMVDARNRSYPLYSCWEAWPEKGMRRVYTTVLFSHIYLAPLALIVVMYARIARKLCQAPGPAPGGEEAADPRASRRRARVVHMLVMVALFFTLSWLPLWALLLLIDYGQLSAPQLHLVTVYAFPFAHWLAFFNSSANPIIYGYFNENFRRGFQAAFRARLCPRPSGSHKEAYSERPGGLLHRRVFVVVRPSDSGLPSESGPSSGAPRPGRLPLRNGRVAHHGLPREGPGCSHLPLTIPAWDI

Molecular target: T1, Human OT7T022 receptor (Homo sapiens, UniProt Q9GZQ6)
T1 construct: expressed in transfected cells; host or cells: CHO cells
Experiment: Agonist activity: inhibition of forskolin-induced intracellular cAMP increase in human OT7T022 receptor-expressing CHO cells
Format: cell-based
Conditions: 1 μM forskolin, 30 min, read-out: ED50, inhibition of intracellular cAMP increase by forskolin treatment
Description: Human OT7T022 receptor-expressing CHO cells prepared based on the procedures described in WO 00/29441 were plated in 24-well plates at 3×10^5 cells/well and cultured overnight The cells were washed with Hanks' buffer (HBSS) supplemented with 0.05% BSA and 0.2 mM IBMX and then preincubated in the same buffer at 37° C. for 30 min. Then, the buffer was exchanged for HBSS supplemented with 0.05% BSA and 0.2 mM IBMX, this buffer supplemented with 1 μM forskolin alone, or this buffer supplemented with 1 μM forskolin and a peptide at a varied concentration, and the cells were incubated at 37° C. for 30 min. After the incubation, intracellular cAMP was extracted and determined for each well according to the protocol attached to the cAMP EIA Kit (Amersham). For each concentration of the peptides used, the ratio of inhibition of intracellular cAMP increase by forskolin treatment was calculated to thereby obtain the dose-reaction curves as shown in FIG. 14.

SMILES	EC50
CC(C)C[C@H](NC(=O)[C@@H]1CCCN1C(=O)[C@@H](N)CC(C)C)C(=O)N[C@@H](CCCNC(=N)N)C(=O)N[C@@H](Cc1ccccc1)C(N)=O [LPLRF amide, Leu-Pro-Leu-Arg-Phe-NH2]	36 nM
N=C(N)NCCC[C@H](NC(=O)[C@H](CCC(N)=O)NC(=O)[C@@H]1CCCN1)C(=O)N[C@@H](Cc1ccccc1)C(N)=O [PQRF amide, Pro-Gln-Arg-Phe-NH2]	≥ 1000 nM
